In one test the target is T1, HO-1 (rat spleen) (Rattus norvegicus, UniProt P06762).
T1 construct: Spleen microsomes were used as a source of HO-1; from tissue; host or cells: spleen microsomal fraction of adult male Sprague-Dawley rats
T1 sequence (P06762 1-289): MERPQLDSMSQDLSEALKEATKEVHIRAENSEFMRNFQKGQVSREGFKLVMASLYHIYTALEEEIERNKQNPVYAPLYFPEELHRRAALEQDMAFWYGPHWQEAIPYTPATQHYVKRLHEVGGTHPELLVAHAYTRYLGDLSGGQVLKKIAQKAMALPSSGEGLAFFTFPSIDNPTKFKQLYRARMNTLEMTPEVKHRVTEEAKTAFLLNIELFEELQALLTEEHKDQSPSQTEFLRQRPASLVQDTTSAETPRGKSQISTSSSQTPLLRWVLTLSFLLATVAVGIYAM
In words: HO enzymatic activity, rat spleen microsomal fraction (CO formation from methemalbumin). In kind it is biochemical. Conditions: mean ± SD of replicate experiments. The protocol:
(§1) Incubations for HO activity analysis were done under conditions for which the rate of CO formation (pmol CO×min^−1×mg protein^−1) was linear with respect to time and microsomal protein concentration. Briefly, reaction mixtures (150 μL) consisting of 100 mM phosphate buffer (pH 7.4), 50 μM methemalbumin, and 1 mg/mL protein were pre-incubated with the inhibitors at final concentrations ranging from 0.1-100 μM for 10 minutes at 37° C. Reactions were initiated by adding NADPH at a final concentration of 1 mM and incubations were performed for an additional 15 minutes at 37° C.
(§2) Incubations for HO activity analysis were done under conditions for which the rate of CO formation (pmol CO/mg protein/minute) was linear with respect to time and microsomal protein concentration. […] Reactions were stopped by instantly freezing the reaction mixture on pulverized dry ice and CO formation was measured by gas chromatography using a TA 3000R Process Gas Analyzer (Trace Analytical/Ametek, Newark, Del., USA).
(§3) The values on the abscissa represent the decimal logarithm of the inhibitor's concentration (in μM), whereas the values of the activity on the ordinate are expressed as a percentage of the control experiments without inhibitor. […]

The next test addresses T2, HO-2 (rat brain) (Rattus norvegicus, UniProt P23711).
T2 construct: brain microsomes were used as a source of HO-2; from tissue; host or cells: brain microsomal fraction of adult male Sprague-Dawley rats
T2 sequence (P23711 1-315): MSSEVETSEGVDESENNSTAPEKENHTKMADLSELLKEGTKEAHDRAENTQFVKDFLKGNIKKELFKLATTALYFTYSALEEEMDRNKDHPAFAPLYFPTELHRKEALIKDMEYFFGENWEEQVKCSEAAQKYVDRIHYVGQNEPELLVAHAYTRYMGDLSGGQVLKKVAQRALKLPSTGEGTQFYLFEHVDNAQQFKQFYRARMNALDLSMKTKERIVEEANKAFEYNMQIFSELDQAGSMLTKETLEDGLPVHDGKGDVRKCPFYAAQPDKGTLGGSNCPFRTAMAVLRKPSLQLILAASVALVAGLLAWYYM
Description: HO enzymatic activity, rat brain microsomal fraction (CO formation from methemalbumin). In kind it is biochemical. Conditions: IC50 HO-2 (rat brain)/μM), mean ± SD of replicate experiments. The protocol: as §1, §2, §3

Structures can show the parent of a compound that is named as a salt.

We go through 2 compounds from patent US20120020915A1, “Compounds and Methods for Treating Cancer and Diseases of the Central Nervous System” (QUEENS UNIVERSITY AT KINGSTON, priority 2007, published 2012).

The term IC50 denotes the concentration needed to halve the response being measured. Low values mean higher potency, high ones lower potency.

In the case of `Cl.OC(CCc1ccc(I)cc1)Cn1ccnc1` (racemic) [QC-74, (±)-1-(1H-Imidazol-1-yl)-4-(4-iodophenyl)-2-butanol hydrochloride], the 50% inhibitory concentration (IC50) against HO-1 (rat spleen) is 0.06 ± 0.03 µM.

On to `Nc1cccc(SC[C@H]2CO[C@](CCc3ccc(Cl)cc3)(Cn3ccnc3)O2)c1` [QC-20, (2S,4R)-2-[2-(4-chlorophenyl)ethyl]-2-[(1H-imidazol-1-yl)methyl]-4-[{(3-aminophenyl)thio}methyl]-1,3-dioxolane hydrochloride], for which the IC50 against HO-2 (rat brain) came to 24 ± 4 µM.
